{"sequences": {"note": "Sequences of proteins named here, by UniProt entry; tags and fusion partners are left off. Residues count along the entry.", "UniProt Q9KB49, 24-500": "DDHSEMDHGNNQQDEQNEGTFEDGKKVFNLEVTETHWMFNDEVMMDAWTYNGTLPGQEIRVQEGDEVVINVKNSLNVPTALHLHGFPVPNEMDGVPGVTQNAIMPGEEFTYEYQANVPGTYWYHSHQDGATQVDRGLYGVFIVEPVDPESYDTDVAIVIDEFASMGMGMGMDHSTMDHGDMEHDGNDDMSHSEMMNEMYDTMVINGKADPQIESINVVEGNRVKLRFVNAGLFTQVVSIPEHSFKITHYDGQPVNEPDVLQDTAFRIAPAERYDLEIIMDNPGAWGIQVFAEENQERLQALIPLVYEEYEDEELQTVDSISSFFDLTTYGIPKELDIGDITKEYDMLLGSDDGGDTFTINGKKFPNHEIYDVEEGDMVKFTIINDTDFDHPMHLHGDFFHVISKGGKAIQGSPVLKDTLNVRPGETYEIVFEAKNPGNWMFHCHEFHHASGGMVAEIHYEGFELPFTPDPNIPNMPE"}, "source": "paper PMC11550293", "about": "“Biochemical characterization of a recombinant laccase from Halalkalibacterium halodurans C-125 and its application in the biotransformation of organic compounds” (Biotechnology Letters, 2024)", "biological_target": "rLac-HhC125 (Halalkalibacterium halodurans, UniProt Q9KB49)", "test": "residual SGZ oxidation at […] nm", "format": "biochemical", "settings": "1000 µM; 1 mM inhibitor, 0 min exposure; SGZ substrate 0.025 mM, 100 mM Tris-HCl pH 8, 2 mM CuSO4", "data": [{"smiles": "[N-]=[N+]=N", "values": [{"measurement": "Residual activity (%) ± SD (0 min)", "result": "64.2 ± 3", "unit": "%"}]}]}
